miR-21 reporter: raises the signal of a miR-21 reporter. Potency, µM (highest dose often 38.3 µM), without a hit: top-dose reporter change, positive = more light. 340,000 tested, under 10 active. HeLa miR-21 FLuc reporter, luciferase, 48 h; active = well fitted rising curve with a large enough effect; inconclusive = small, poorly fitted or top-dose-only effect; inactive = no such curve, though single readings can be large or run the other way;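 further: % of control where 0% means no effect; miR-21 action dims this reporter so a rising signal means less miR-21 action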
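Compounds were titrated across several concentrations (up to approximately 40 uM) and incubated 48 hours with HeLa miR-21-FLuc reporter cells (miR-21 target sequence downstream of FLuc, endogenous miR-21). Readout was firefly luciferase luminescence after lytic detection reagent.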
A549 viability: counter-screen for Nrf2 inhibitors: cytotoxicity in A549 cells | A549 ARE-Fluc cells, CellTiter-Fluor viability, 18-24 h | Potency, µM (titrated, usually from 46 µM), for the others: top-dose activity change, negative = cytotoxicity, hits mostly inhibitors | actives 0.16% (n = 390,000); also: potency is read from the fitted curve at half-maximal effect; % is scaled to controls: 0 for no effect and ±100 for the full control effect
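A549 ARE_Fluc cells in 5% FBS OPTI-MEM were exposed to compounds in concentration-response for 18-24 h at 37 deg C. Viability was read by CellTiter-Fluor fluorescence (Ex 405/Em 525) after 30 min, before the luciferase read.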
Nrf2 inh: blocks Nrf2 signaling; actives 2.1% (n = 360,000); A549 ARE-Fluc reporter, luciferase luminescence, 18-24 h; Potency, µM (doses to about 46 µM), without a hit: at the top dose activity change, negative = inhibition, hits mostly inhibitors; AID 504444; also: potency is read from the fitted curve at half-maximal effect; % is scaled to controls: 0 for no effect and ±100 for the full control effect; nearly all actives have a fitted effect of over 60% in size
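A549 ARE_Fluc cells, 5000/well, 5% FBS OPTI-MEM; compounds in dose-response, 18-24 h at 37 °C/5% CO2; CellTiter-Fluor viability read (Ex 405/Em 525), then BugLite luciferase luminescence = Nrf2 activity.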
Nrf2 activator: Nrf2 pathway activation; AID 624171; AREc32 ARE-luciferase reporter (MCF7-derived line), luminescence, 24 h; Potency, µM (highest dose often 46.1 µM), inactives show at the top dose activation, actives largely listed as activators; actives 0.31% (n = 410,000); also: potency is read from the fitted curve at half-maximal effect; % of control where 0% means no effect; nearly all actives have a fitted effect of over 65% in size
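For detection, Steady-Glo was added and plates sat 30 min at RT; before that, AREc32_Fluc cells grown overnight in OPTI-MEM/5% FBS had been treated with 23 nL compound for 24 hr at 37 deg C.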
p53 reactivator: restores transcriptional activity of mutant p53 | actives 0.063% (n = 320,000) | Potency, µM (titrated, usually from 92.2 µM), without a hit: top-dose activity change, positive = activation, most hits filed as activators | AID 504706 | H1299 p53-A138V BP100-luciferase reporter, luminescence, 24 h; also: potency is read from the fitted curve at half-maximal effect; % of control where 0% means no effect; nearly all actives have a fitted effect of over 45% in size
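H1299 (p53-null), stable ts p53-A138V + BP100-Luc; 1000 cells/well, Opti-MEM/10% FBS; cpd 4 pt, 1:5; 24 h, 37 deg C, 5% CO2; detection reagent 10 min RT; luminescence.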
ClpP mod: qHTS Assay for Activators of ClpP. ATP-dependent Clp protease proteolytic subunit (Bacillus subtilis (strain 168)), P80244. purified B. subtilis ClpP, FRET peptide cleavage, 20 min. Potency, µM (doses to about 57.5 µM), for the others: at the top dose activity change, negative = active. actives 1.9% (n = 340,000); active = well fitted falling curve with a large enough effect; inconclusive = small, poorly fitted or top-dose-only effect; inactive = no such curve, though single readings can be large or run the other way; also: potency is read from the fitted curve at half-maximal effect; the source files actives as falling curves though it sought activators and does not explain the sign; nearly all actives have a fitted effect of over 65% in size
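FRET quenching reversal measured ClpP activation: 10 microg/mL B. subtilis ClpP at pH 8 with the FRET-FV decapeptide, read at 430 nm after 320 nm excitation. The 20-min minus 0-min signal was scaled between DMSO/no-enzyme wells and ADEP (5.8 microM final).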
Active calls of the source: *; ? = inconclusive; / = no result; [ ] = another dose, or the depositor's remark. This is a sample that favours compounds with a hit; in the whole collection about 3.7% have one here. Unless noted, calls follow the shape of the dose curve; as a rule, active = well fitted curve in the direction sought with a large enough effect; inconclusive = small, poorly fitted or top-dose-only effect, or another doubt; inactive = no such curve, though single readings can be large; an effect the other way counts as inactive or inconclusive.

Keys – A = miR-21 reporter; B = A549 viability; C = Nrf2 inh; D = Nrf2 activator; E = p53 reactivator; F = ClpP mod
COC[C@@H]1CCCN1c1ccc2c(c1)O[C@@H](COCc1ccccc1)CN([C@H](C)c1ccccc1)S2(=O)=O
  A: /; B: /; C: /; D: 0%; E: /; F: ?

Cc1cc[n+]2c3c(cccc13)CCC2
  A: 0%; B: -13%; C: /; D: 0%; E: -4%; F: 25µM*

Cc1ccc2oc(C(=O)Nc3cccc(-c4nc5ccccc5s4)c3)c(C)c2c1
  A: -44%; B: -2%; C: ?; D: 4%; E: /; F: ?

CCOc1cccc(C(=O)Nc2ccc3oc(Cc4ccc(Cl)cc4)nc3c2)c1
  A: 30%; B: ?; C: 21µM*; D: 0%; E: 2%; F: -7%

Cc1c(C(=O)Nc2cccc(-c3nc4ccccc4s3)c2)oc2ccccc12
  A: -6%; B: 3%; C: ?; D: 6%; E: /; F: 22µM*

Cc1c(C(=O)Nc2ccc3oc(-c4cccnc4)nc3c2)oc2ccccc12
  A: 0%; B: /; C: ?; D: 1%; E: -2%; F: 8.9µM*

O=C(Nc1ccc2oc(Cc3ccc(Cl)cc3)nc2c1)c1cccnc1
  A: 12%; B: -8%; C: ?; D: 2%; E: -7%; F: 1%

CCOc1cccc(C(=O)Nc2ccc3oc(-c4cccnc4)nc3c2)c1
  A: -4%; B: -10%; C: 9.2µM*; D: 0%; E: 11%; F: 5%

O=C(Nc1ccc2oc(-c3cccnc3)nc2c1)c1cccc(Br)c1
  A: -7%; B: 1%; C: -22%; D: 0%; E: /; F: -4%

COc1cc(NC(=O)CN2C(=O)NC(c3ccccc3)(c3ccccc3)C2=O)c(C)cc1[N+](=O)[O-]
  A: 3%; B: -17%; C: 29µM*; D: 6%; E: 0%; F: -4%

Reformatted: results already given.
Second line of a record – miR-21 reporter, A549 viability, Nrf2 inh, Nrf2 activator, p53 reactivator, ClpP mod
- COC[C@@H]1CCCN1c1ccc2c(c1)O[C@@H](COCc1ccccc1)CN([C@H](C)c1ccccc1)S2(=O)=O
 : /, /, /, 0%, /, ?
- Cc1cc[n+]2c3c(cccc13)CCC2
 : 0%, -13%, /, 0%, -4%, 25µM*
- Cc1ccc2oc(C(=O)Nc3cccc(-c4nc5ccccc5s4)c3)c(C)c2c1
 : -44%, -2%, ?, 4%, /, ?

Later entries
Keys – A = miR-21 reporter; B = A549 viability; C = Nrf2 inh; D = Nrf2 activator; E = p53 reactivator; F = ClpP mod
CN1CCCC2(CCCN(Cc3nc(Cc4cccc(C(F)(F)F)c4)no3)C2)C1 (stereo not given)
  A: -2%; B: 1%; C: 9%; D: 5%; E: -5%; F: /

c1cc(C2CCN(Cc3nc(-c4ccc5c(c4)OCO5)no3)CC2)ccn1
  A: 15%; B: -7%; C: 16µM*; D: 3%; E: -1%; F: -1%

FC(F)(F)c1cccc(Cc2noc(CN3CCC(c4ccncc4)CC3)n2)c1
  A: 25%; B: -2%; C: 18µM*; D: 3%; E: -1%; F: /

CC1CCN(S(=O)(=O)c2ccc3c(c2)CCN3)CC1
  A: -1%; B: -1%; C: /; D: 0%; E: /; F: -23%

Cc1ccccc1NC(=O)c1c(C)[nH]c(=S)c(C#N)c1-c1ccco1
  A: -6%; B: 6%; C: 23%; D: 0%; E: -4%; F: 14µM*

CCc1c(C)c2ccc(OCC(=O)OC(C)C)c(C)c2oc1=O
  A: -6%; B: 0%; C: 11%; D: 0%; E: 2%; F: 25µM*

Cc1c(OC(=O)CNC(=O)OC(C)(C)C)ccc2c3c(c(=O)oc12)CCC3
  A: -8%; B: -3%; C: 4%; D: 0%; E: -13%; F: 594%

C=CCOC(=O)COc1ccc2c(C)c(C)c(=O)oc2c1C
  A: -5%; B: -3%; C: -5%; D: 0%; E: 7%; F: 16µM*

Cc1c(OCC(=O)OC(C)(C)C)ccc2c3c(c(=O)oc12)CCC3
  A: -17%; B: 8%; C: /; D: 0%; E: ?; F: 28µM*

CC(=O)COc1ccc2c3c(c(=O)oc2c1C)CCCCC3
  A: -71%; B: 14%[1.84 µM]; C: 21%; D: 4%; E: ?; F: 25µM*

CCc1c(C)c2ccc(OCC(=O)N(C)C)c(C)c2oc1=O
  A: -33%; B: 3%; C: ?; D: 0%; E: 9%; F: 40%

Cc1cccc(N2C(=O)CSC23C(=O)N(CC(=O)NCCc2ccccc2)c2ccccc23)c1 (stereo not given)
  A: ?; B: -9%; C: -15%; D: 1%; E: /; F: 0%

O=C1c2ccccc2C(=O)N1c1noc2ccccc12
  A: /; B: 11%; C: ?; D: /; E: /; F: /

Cc1c(OCC(=O)OC(C)C)ccc2c3c(c(=O)oc12)CCC3
  A: -12%; B: -15%; C: -3%; D: 0%; E: -5%; F: 32µM*

CCc1ccc(CN(Cc2ccco2)C(=O)COc2ccccc2Cl)cc1
  A: ?; B: 0%; C: ?; D: 1%; E: /; F: -7%

CC(C)/C=C(/C(=O)c1ccc(Cl)cc1Cl)n1cncn1
  A: 14%; B: 2%; C: -2%; D: ?; E: -12%; F: -2%

O=C(c1ccc(Cl)cc1Cl)C1(n2cncn2)Oc2ccccc2C1O (stereo not given)
  A: -11%; B: 1%; C: 10µM*; D: 3%; E: -26%; F: -2%

COc1ccc(N2CCN(Cc3nc4c(c(=O)n(C)c(=O)n4C)n3C(C)C)CC2)cc1
  A: 3%; B: -1%; C: /; D: 0%; E: /; F: -1%

CCc1cc2c(cc3c(=O)n(CC(=O)NCCc4ccccc4)ncn32)s1
  A: -6%; B: -11%; C: -21%; D: 1%; E: /; F: -4%

O=C(O)CC(C(=O)O)c1cn(Cc2ccccc2)c2ccccc12 (stereo not given)
  A: -2%; B: 1%; C: 5%; D: 3%; E: 7%; F: 28µM*

Brc1ccc(-c2csc(/N=C/N3CCCC3)n2)cc1
  A: -29%; B: -9%; C: 12µM*; D: 2%; E: 17%; F: /

Brc1ccc(-c2csc(/N=C/N3CCOCC3)n2)cc1
  A: -16%; B: -17%; C: ?; D: 6%; E: 7%; F: ?

CN(c1ccc(C(=O)COC(=O)C2CC2)cc1)S(C)(=O)=O
  A: /; B: 0%; C: -1%; D: 2%; E: 35µM*; F: 1%

O=C(Nc1nc(-c2ccccn2)cs1)C1CC1
  A: -48%; B: 18%; C: 14%; D: 5%; E: 22µM*; F: -12%

CN(CC1CCCO1)S(=O)(=O)c1ccc(C(=O)Nc2ccccc2F)cc1 (stereo not given)
  A: /; B: 16%; C: ?; D: 2%; E: /; F: -4%

O=C(CCS(=O)(=O)c1ccc(F)cc1)Nc1nc(-c2ccccn2)cs1
  A: 20%; B: -3%; C: 5%; D: ?; E: 13%; F: -2%

CN(CC1CCCO1)S(=O)(=O)c1ccc(C(=O)Nc2nc(-c3ccccn3)cs2)cc1 (stereo not given)
  A: 11%; B: ?; C: 5.2µM*; D: 2%; E: 12%; F: -2%

CC(Oc1ccc(F)cc1)C(=O)Nc1nc(-c2ccccn2)cs1 (stereo not given)
  A: /; B: ?; C: 21µM*; D: 9%; E: 8%; F: /

O=C(Nc1nc(-c2ccccn2)cs1)c1cccc(-n2cnnn2)c1
  A: ?; B: -7%; C: 7.3µM*; D: 0%; E: 20%; F: -5%

CC(=O)N1c2ccccc2CC1C(=O)N1CCN(c2cc(Cl)ccc2C)CC1 (stereo not given)
  A: 7%; B: -2%; C: /; D: 0%; E: /; F: 2%

COc1ccc(CNC(=O)C2CCN(c3nnc(-n4c(C)ccc4C)s3)CC2)c(OC)c1
  A: -1%; B: -2%; C: -8%; D: ?; E: /; F: -1%

O=C(Nc1ccccn1)c1csc2c1CCCC2
  A: -40%; B: 11%; C: ?; D: 5µM*; E: 1%; F: /

Cc1ccc(C)c(N2CCN(C(=O)C(C)n3nc(C)c4sc5ccccc5c4c3=O)CC2)c1 (stereo not given)
  A: 2%; B: -9%; C: ?; D: 4%; E: /; F: -2%

CC1(c2nnc(-c3ccncc3)o2)CC(c2ccc([N+](=O)[O-])cc2)=NO1 (stereo not given)
  A: 2%; B: 2%; C: 12µM*; D: -1%; E: 3%; F: -2%
